Source: paper PMC3700404 (Chemistry & biology, 2008)

The chains behind the UniProt entries cited, without tags or fusion partners.
UniProt P21554, whole entry K192A: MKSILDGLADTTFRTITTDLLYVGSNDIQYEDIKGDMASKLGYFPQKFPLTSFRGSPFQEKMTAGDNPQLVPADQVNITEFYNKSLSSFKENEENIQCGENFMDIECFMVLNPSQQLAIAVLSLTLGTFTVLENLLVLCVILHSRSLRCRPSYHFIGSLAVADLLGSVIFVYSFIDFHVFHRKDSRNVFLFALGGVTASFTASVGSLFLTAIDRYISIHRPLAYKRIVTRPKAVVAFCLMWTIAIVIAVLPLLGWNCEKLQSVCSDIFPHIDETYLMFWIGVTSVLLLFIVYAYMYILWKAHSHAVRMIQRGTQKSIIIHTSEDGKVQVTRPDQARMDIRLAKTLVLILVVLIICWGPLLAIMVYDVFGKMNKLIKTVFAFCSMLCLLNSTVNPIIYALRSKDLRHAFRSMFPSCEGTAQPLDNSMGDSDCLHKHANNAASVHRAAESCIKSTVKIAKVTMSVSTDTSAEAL
UniProt P34972, whole entry C257S: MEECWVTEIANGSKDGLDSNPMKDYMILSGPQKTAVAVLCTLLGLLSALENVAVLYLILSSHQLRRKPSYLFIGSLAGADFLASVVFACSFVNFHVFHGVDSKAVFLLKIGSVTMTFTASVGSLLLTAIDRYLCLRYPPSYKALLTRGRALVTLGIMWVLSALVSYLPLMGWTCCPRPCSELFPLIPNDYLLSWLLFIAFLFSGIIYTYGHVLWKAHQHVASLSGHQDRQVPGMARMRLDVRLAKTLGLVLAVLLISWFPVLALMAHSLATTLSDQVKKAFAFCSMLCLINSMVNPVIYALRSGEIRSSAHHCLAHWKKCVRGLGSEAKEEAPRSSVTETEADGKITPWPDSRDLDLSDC
UniProt P34972, whole entry: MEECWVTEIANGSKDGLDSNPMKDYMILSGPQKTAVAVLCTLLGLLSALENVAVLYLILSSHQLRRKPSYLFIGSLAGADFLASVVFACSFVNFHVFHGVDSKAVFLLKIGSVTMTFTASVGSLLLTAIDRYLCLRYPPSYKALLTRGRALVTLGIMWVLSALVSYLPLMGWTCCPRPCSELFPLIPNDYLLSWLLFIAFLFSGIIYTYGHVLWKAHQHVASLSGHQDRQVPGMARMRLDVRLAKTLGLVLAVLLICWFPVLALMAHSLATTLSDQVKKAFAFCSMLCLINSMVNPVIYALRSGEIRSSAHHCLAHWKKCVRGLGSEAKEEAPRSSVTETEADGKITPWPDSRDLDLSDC
UniProt P34972, whole entry C257A: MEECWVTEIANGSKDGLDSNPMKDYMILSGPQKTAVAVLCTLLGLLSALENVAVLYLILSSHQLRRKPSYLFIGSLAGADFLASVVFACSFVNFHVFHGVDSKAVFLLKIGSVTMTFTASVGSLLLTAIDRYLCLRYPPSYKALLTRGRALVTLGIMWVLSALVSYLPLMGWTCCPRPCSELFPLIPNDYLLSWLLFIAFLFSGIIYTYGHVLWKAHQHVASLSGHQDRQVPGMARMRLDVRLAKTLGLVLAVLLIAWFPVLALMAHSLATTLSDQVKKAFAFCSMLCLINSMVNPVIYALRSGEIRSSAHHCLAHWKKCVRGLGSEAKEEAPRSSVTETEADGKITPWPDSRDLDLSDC

How the values were obtained:
[1] = target: hCB1 K3.28(192)A mutant receptor (Homo sapiens, UniProt P21554, K192A)
[2] = target: hCB2 C6.47(257)S mutant receptor (Homo sapiens, UniProt P34972, C257S); assay: Saturation-binding assay, hCB2 C6.47; conditions: HEK293 membranes, mean (95% CI)
[3] = target: WT hCB2 receptor (Homo sapiens, UniProt P34972); assay: Saturation-binding assay, WT hCB2 membranes; conditions: HEK293 membranes, mean (95% CI)
[4] = target: hCB2 C6.47(257)A mutant receptor (Homo sapiens, UniProt P34972, C257A); assay: Saturation-binding assay, hCB2 C6.47; conditions: HEK293 membranes, mean (95% CI)

## CCCCCCC(C)(C)c1ccc([C@@H]2C[C@H](O)CC[C@H]2CCCO)c(O)c1 [[^3H]-CP55940]
[1]
  saturable binding of radioligand: no saturable binding
[2]
  Bmax: 1.07 (0.95–1.18) pmol/mg
[3]
  Bmax: 1.19 (1.01–1.37) pmol/mg
[4]
  Bmax: 0.96 (0.84–1.08) pmol/mg
